# Antibody variant affinities, Ab-14 heavy chain, assay 1

Target peptide (SARS-CoV-2 spike, HR2 region): PDVDLGDISGINAS

Each scFv is VH, three GGGGS repeats, VL, as in the parent Ab-14, and differs from it in the CDRs of the heavy chain only.
VH: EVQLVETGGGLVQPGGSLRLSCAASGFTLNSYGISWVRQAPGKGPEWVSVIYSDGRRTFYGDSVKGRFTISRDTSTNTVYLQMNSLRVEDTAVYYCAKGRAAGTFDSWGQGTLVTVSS
VL: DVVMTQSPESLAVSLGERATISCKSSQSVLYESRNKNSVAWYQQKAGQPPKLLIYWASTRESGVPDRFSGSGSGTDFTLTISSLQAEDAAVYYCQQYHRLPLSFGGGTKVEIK

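The starting antibody came from a phage panning campaign against this peptide. The library (AAYL49) carries one to three amino acid substitutions per variant, with no insertions or deletions. The scFvs were displayed on barcoded MATa yeast, the peptide on MATalpha yeast. Binding brings cells together so that they mate, and sequencing counts the barcode pairs among the diploids. Each replicate has its own calibration line, from reference interactions of the BCL2 family. Mating was done three times.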

The parent's heavy chain CDRs are GFTLNSYGIS, VIYSDGRRTFYGDSVK, GRAAGTFDS; each variant's own CDRs replace them letter for letter.
Scale: log10 of Kd in nM, estimated from mating counts; low values are strong binders.
Replicates are averaged; those with no signal do not enter the mean.
An entry "not detected" has no value in the source: the pair was not observed among the diploids in any replicate. This suggests poor binding but is not conclusive.
Empty control strains, which show no peptide, gave a signal in 15% of pairings with library AAYL49; the median was 4.06 and 95% of these signals were weaker than 2.83. No background was subtracted. For each scFv, signals with the empty controls are counted beside the result.
In this assay the parent's reference entry averaged 0.65; its copy inside this library read 4.11 (one replicate of three).

| mean log10 Kd (nM) | replicates with signal | empty controls | CDR-H1 | CDR-H2 | CDR-H3 |
|---|---|---|---|---|---|
| 3.32 | 1/3 | 1/9 | GFTLNSYGIS | VIYSDGDRWFYGDSIK | GRAAGTFDS |
| not detected | 0/3 | 0/9 | GFTLNSYGRK | VIYSDGRRTFYGDSVK | RRAAGTFDS |
| not detected | 0/3 | 1/9 | IFTLNSYGIS | VIYSDGRATFQGDSVK | GRAAGTFDS |
| 3.20 | 3/3 | 1/9 | GFALNSYGIS | VIYSDGRRTFYGDYVK | GRAAGPFDS |
| not detected | 0/3 | 0/9 | GFTLNSYGIS | VIYSDGRRTFLGDSVF | GRAAPTFDS |
| not detected | 0/3 | 0/9 | GFTLNSYGIS | VIYSDGRRTFYADSVK | GRAAGTQDS |
| not detected | 0/3 | 0/9 | GVTLNSMNIS | VIYSDGRRTFYGDSVK | GRAAGTFDS |
| not detected | 0/3 | 0/9 | GFTLNSYGIS | VICSDGPRTFYGDSGK | GRAAGTFDS |
| 3.14 | 1/3 | 0/9 | GFTLNSYGIS | VIYSDGRRTHYGDSVK | GRAAATFDS |
| 4.37 | 1/3 | 3/9 | GWTLWSYGMS | VIYSDGRRTFYGDSVK | GRAAGTFDS |
| not detected | 0/3 | 0/9 | GFTLNSYGMS | VIYSDGRQHFYGDSVK | GRAAGTFDS |
| not detected | 0/3 | 0/9 | GFTLNSYGIS | VIYSDGRRTFYGDSNV | GRAAGTRDS |
| not detected | 0/3 | 3/9 | GFTLNSYGIS | VIYSDGRRTFYGDSEK | GRAAGLFDS |
| not detected | 0/3 | 0/9 | GFTLNSYGIS | VIYWDGRRTFYGDSVK | GRAAGTRDG |
| 4.94 | 2/3 | 2/9 | GFTLNSYGIS | VIYKDGRRHFYGDSVK | GRAAGTFDT |
| not detected | 0/3 | 0/9 | GFTLNSYGIS | PIYSDGRPTFYGDSVK | GRAAGTFFS |
| 6.35 | 1/3 | 4/9 | CFTWNSYGIS | VIYSDGRRTFYGDSVK | GRAACTFDS |
| not detected | 0/3 | 2/9 | GFTLNSYGIS | VIYCDGRRTFYGDSVK | GRAAHTFDA |
| not detected | 0/3 | 0/9 | GFILYSYGIS | VAYSDGRRTFYGDSVK | GRAAGTFDS |
| 1.30 | 3/3 | 0/9 | GFTLNSYGIS | VIYSDGRRTFYGESVK | GRAAGTFLD |
| not detected | 0/3 | 0/9 | GFTINSYGIS | VIYSDGPRTFYGDSVK | GFAAGTFDS |
| not detected | 0/3 | 2/9 | GFTLNSDGIS | VSYSDGFRTFYGDSVK | GRAAGTFDS |
| not detected | 0/3 | 2/9 | GFTLNSYGSS | VIYSDGRRTWYGDVVK | GRAAGTFDS |
| 2.86 | 1/3 | 0/9 | GFTLNMYEIS | VIYSDGRRTFYGDSVW | GRAAGTFDS |
| not detected | 0/3 | 0/9 | GFTLNSYGIS | VIYSDGRRTFYGASVK | GRAAGTGDS |
| 4.24 | 1/3 | 0/9 | GFTLNSYGIS | VIYSDGDRTFYGDSVK | GREAGTFCS |
| 4.45 | 1/3 | 1/9 | GFTLNSYEIS | VIYSDGRRTFYGDSVK | GRAANTFDS |
| not detected | 0/3 | 0/9 | GFTLNSYGIS | VIYSDGRRPFYGDSVK | GRACGNFDS |
| 1.83 | 2/3 | 0/9 | GFTLNSYGIT | IIYSDGRRTMYGDSVK | GRAAGTFDS |
| not detected | 0/3 | 2/9 | GFTLNSYGIM | VIYSDGRRTFYGVSVK | GRAAGTFYS |
| 4.78 | 2/3 | 2/9 | GKTLNSYGIS | VPYSDGRRTFYGDSVK | GRAAGTWDS |
| 0.73 | 3/3 | 0/9 | GFTLNEYGIS | VIYSDGRRTFYGDSVK | GLAAGTFDD |
| 4.13 | 3/3 | 3/9 | GFTLNYYGIS | VSYSDGRRTFYGDSVK | GAAAGTFDS |
| 4.30 | 2/3 | 3/9 | GFTLNSYAIS | VIKSLGRRTFYGDSVK | GRAAGTFDS |
| 4.03 | 1/3 | 2/9 | GFTLNSYGSS | VIYSDGRRTFYHDSVD | GRAAGTFDS |
| not detected | 0/3 | 0/9 | YFPLNSYGIS | VIYSDGRRTFYGDSVK | GRAANTFDS |
| 3.39 | 3/3 | 0/9 | GVTLNSYGWS | VIYSDGRRTFYGDSVK | GRAAGTFDQ |
| 5.31 | 1/3 | 2/9 | GFTLVSYGIS | VIYNDGRRTFYGGSVK | GRAAGTFDS |
| not detected | 0/3 | 1/9 | GFTLNSYGES | VIYSDGRRTFYQDSVK | GRAYGTFDS |
| not detected | 0/3 | 0/9 | GFTLNSYGIS | PIYSDGRRTFYLDSVK | GGAAGTFDS |
| not detected | 0/3 | 0/9 | GFTLNSYGIS | VIYRDGRRTFYGDSVK | GRAAVTFDG |
| not detected | 0/3 | 1/9 | YFTLNSYGIS | VIISDGRRTFYGDSVK | GRAAGTFDH |
| not detected | 0/3 | 0/9 | GFTRNSYGIS | VIYSDRRRTFYGDSVK | GRALGTFDS |
| 4.66 | 1/3 | 2/9 | GFTLNSYGIV | VIYSDGRRTFYGDSVK | GRAAGTFPS |
| not detected | 0/3 | 0/9 | GFTLNSYGMS | VIYSDRRRTFYGDSVK | GRIAGTFDS |
| not detected | 0/3 | 1/9 | GNTLNSYGIS | VIYSDGRRTFYGWSPK | GRAAGTFDS |
| 4.21 | 2/3 | 1/9 | GFTLNLYGIS | VIYSDGRRTFYGSSCK | GRAAGTFDS |
| not detected | 0/3 | 1/9 | TFTLNSYGIS | VIYSDSRRTFYGDSVK | GWAAGTFDS |
| not detected | 0/3 | 0/9 | GFTLNSYGIS | VTYSDGRRTFYGDQVE | GRAAGTFDS |
| 4.07 | 1/3 | 1/9 | GFTLNSYGIS | VIYSDARRTFYPSSVK | GRAAGTFDS |
| 4.16 | 2/3 | 3/9 | GFTLNSYGIS | VINSDGRRTFYKDSVK | GRAAGTFDS |
| not detected | 0/3 | 0/9 | GFTLNSYGIS | VIYSDGRRTFYGDSGK | GRAAGTFDW |
| 2.63 | 1/3 | 2/9 | GFTLNSSIIS | VIYSDGRRTFYGDSVQ | GRAAGTFDS |
| 2.54 | 1/3 | 0/9 | GYTLNCYGIS | VIYSDGRRTFYGDSVK | GRMAGTFDS |
| not detected | 0/3 | 0/9 | GFTLNSYGIS | VILSDGRRTFYGDSVK | GRRAGTFDS |
| 4.40 | 1/3 | 0/9 | GFTLNSYGIS | VIYSDLRRTFYGDSVK | GREAFTFDS |
| not detected | 0/3 | 2/9 | GQTLNSYGIS | VIYSDGRRTFRGDSVK | GCAAGTFDS |
| not detected | 0/3 | 0/9 | GFTLNSYGIS | VIYSDGRRHFYGDSSK | GRRAGTFDS |
| not detected | 0/3 | 0/9 | SFTLNSYGIS | VASSDGRRTFYGDSVK | GRAAGTFDS |
| 4.91 | 1/3 | 3/9 | GFTFNSYGIS | VIYSDGRRTFNGDSVK | GCAAGTFDS |
| not detected | 0/3 | 0/9 | GFTLNSYGIS | VTYSDGRRTFYGDFVK | GRAAITFDS |
| not detected | 0/3 | 1/9 | GFTSNSYGIS | VIYSDGRRTFYGCSVK | GRAARTFDS |
| 3.39 | 1/3 | 1/9 | GFTLNSYGIS | VIYSSGRRTFYGDSVK | GRRAGTFDH |
| 4.68 | 3/3 | 4/9 | GWTDNSYGIS | VIYSDGRRTFYGPSVK | GRAAGTFDS |
| not detected | 0/3 | 0/9 | GFSLNSYGIT | VIYSDMRRTFYGDSVK | GRAAGTFDS |
| not detected | 0/3 | 0/9 | GFTLNSYMIS | VPYSDGRRTFYGDSVK | GRAALTFDS |
| 2.74 | 3/3 | 2/9 | GFTLFDYGIS | VIYSDGRRTFYGDSVK | GRAAGTFDS |
| 2.98 | 3/3 | 1/9 | GRTLNSYGIS | VIYSDGRRTFYGDSVK | GRAAGAFDW |
| 0.91 | 3/3 | 1/9 | GFTLNSYGIS | VIYSDGRRTFYGDSVK | GHAAGTFDA |
| not detected | 0/3 | 5/9 | GFTLNSYGIS | VIYSDGRRTFYRDSVK | GRKAGTFDP |
| not detected | 0/3 | 0/9 | GFTLNSYGIS | VIYSDGRRTFYSDQVI | GRAAGTFDS |
| not detected | 0/3 | 0/9 | GFTLNSYGFS | VIYSDGRRTFYGDSVK | CRAAGGFDS |
| 4.46 | 3/3 | 6/9 | GFTDNSYGIS | VIYSDGSRTFYGDSVK | GRKAGTFDS |
| not detected | 0/3 | 0/9 | GFTLNSYGIS | VIYSDGRRTFYGDSVK | LQVAGTFDS |
| 4.13 | 1/3 | 1/9 | GFPQNSYGIS | VIYFDGRRTFYGDSVK | GRAAGTFDS |
| not detected | 0/3 | 2/9 | GFTLNSYYIS | VIYSDGRRTFYGDSVT | GRAAGTFDS |
| 3.34 | 1/3 | 0/9 | GFTLNSYGTS | VIYSDGRRTFYGTSVK | GRAAGTFDL |
| not detected | 0/3 | 1/9 | GFTLNSYGIS | VIPSDGRRTFYGDSVK | GRADGHFDS |
| 1.85 | 3/3 | 0/9 | GFTLRSYGIS | VIYSDGRRTFYGDSVK | RRAAGTFDS |
| not detected | 0/3 | 0/9 | GFTLNSYGAS | VIYSDGRRTFYGDSVN | HRAAGTFDS |

6 of these entries, quoted again:

CDR-H1	CDR-H2	CDR-H3	mean log10 Kd (nM)	replicates with signal	empty controls
GFTLNSYGIS	PIYSDGRRTFYLDSVK	GGAAGTFDS	not detected	0/3	0/9
GFTLNSYGMS	VIYSDGRQHFYGDSVK	GRAAGTFDS	not detected	0/3	0/9
GFTLNSYGIS	VIYSDGRRTFYRDSVK	GRKAGTFDP	not detected	0/3	5/9
GFTLNSYGTS	VIYSDGRRTFYGTSVK	GRAAGTFDL	3.34	1/3	0/9
GFPQNSYGIS	VIYFDGRRTFYGDSVK	GRAAGTFDS	4.13	1/3	1/9
GFTLNSYGSS	VIYSDGRRTFYHDSVD	GRAAGTFDS	4.03	1/3	2/9

Data: MIT Lincoln Laboratory AlphaSeq set, Engelhart et al. 2022, doi:10.1038/s41597-022-01779-4, as distributed in FLAb.